# In article PMC2639705, “Two Chromogranin A-Derived Peptides Induce Calcium Entry in Human Neutrophils by Calmodulin-Regulated Calcium Independent Phospholipase A2” (PLoS ONE, 2009):
# Experiments:
# [1] = system: PMNs; assay: Time-lapse intracellular Ca2+ imaging (Fura-2), with SOC/ARC blockers and iPLA2/PLA2 inhibitors; assay type: cell-based, human
# [2] = system: nicotinic acetylcholine receptor; conditions: compared with CAT; ref [70]; cited from earlier work
Substance,"inhibition of CAT-induced Ca2+ entry ([1]; Fura-2, 20 µM CAT, 2.5 mM CaCl2, 100 µM 2-APB (2 min), 25 µM BEL (30 min) or 10 µM BPB (10 min) before peptide)","inhibition of CHR-induced Ca2+ entry ([1]; Fura-2, 20 µM CHR, 2.5 mM CaCl2, 100 µM 2-APB (2 min), 25 µM BEL (30 min) or 10 µM BPB (10 min) before peptide)","suppression of CMZ-induced Ca2+ influx ([1]; Fura-2, 37°C, 1 µM CMZ, 25 µM BEL (30 min), 10 µM BPB (10 min) or 100 µM 2-APB (2 min) before)","suppression of W7-induced Ca2+ influx ([1]; Fura-2, 37°C, 30 µM W7, 25 µM BEL (30 min), 10 µM BPB (10 min) or 100 µM 2-APB (2 min) before)",inhibition of nicotinic cholinergic-stimulated catecholamine release [2]
bromophenacyl bromide,abolished the transient Ca^2+ influx,abolished the transient Ca^2+ influx,significantly suppressed,significantly suppressed,–
substance P,–,–,–,–,"may inhibit nicotinic cholinergic-stimulated catecholamine release, but displays a lower potency"
